Values of other authors in US7622470B2, “Treatment of T-cell lymphoma using 10-propargyl-10-deazaaminopterin” (Sloan-Kettering Institute for Cancer Research, priority 2004, dated 2009).

Tested on: E0771 murine mammary tumor
Conditions: highest dose used; 3 mice per dosage; cited from earlier work

10-Propargyl-10-deazaaminopterin
Toxicity to the mice: toxic to the mice
